According to ChEMBL document CHEMBL1129147, “A chiral recognition element with an unusual size constraint affects the potency and selectivity for peptidomimetic inhibitors of Candida albicans myristoyl-CoA:protein N-myristoyltransferase” (Bioorg Med Chem Lett, 1996):

How the values were obtained:
[1] = substrate: CC(C)C[C@H](NC(=O)CN)C(=O)N[C@@H](Cc1ccc(O)cc1)C(=O)N[C@@H](C)C(=O)N[C@@H](CO)C(=O)N[C@@H](CCCCN)C(=O)N[C@@H](CC(C)C)C(=O)N[C@@H](CO)C(N)=O; details: Candida albicans
[2] = substrate: CC(C)C[C@H](NC(=O)CN)C(=O)N[C@@H](Cc1ccc(O)cc1)C(=O)NCC(=O)N[C@@H](CO)C(=O)N[C@@H](CCCCN)C(=O)N[C@@H](CC(C)C)C(=O)N[C@@H](CO)C(N)=O; details: Candida albicans

B1: Glycylpeptide N-tetradecanoyltransferase 1 (Homo sapiens), P30419 (protein)
chain: MADESETAVKPPAPPLPQMMEGNGNGHEHCSDCENEEDNSYNRGGLSPANDTGAKKKKKKQKKKKEKGSETDSAQDQPVKMNSLPAERIQEIQKAIELFSVGQGPAKTMEEASKRSYQFWDTQPVPKLGEVVNTHGPVEPDKDNIRQEPYTLPQGFTWDALDLGDRGVLKELYTLLNENYVEDDDNMFRFDYSPEFLLWALRPPGWLPQWHCGVRVVSSRKLVGFISAIPANIHIYDTEKKMVEINFLCVHKKLRSKRVAPVLIREITRRVHLEGIFQAVYTAGVVLPKPVGTCRYWHRSLNPRKLIEVKFSHLSRNMTMQRTMKLYRLPETPKTAGLRPMETKDIPVVHQLLTRYLKQFHLTPVMSQEEVEHWFYPQENIIDTFVVENANGEVTDFLSFYTLPSTIMNHPTHKSLKAAYSFYNVHTQTPLLDLMSDALVLAKMKGFDVFNALDLMENKTFLEKLKFGIGDGNLQYYLYNWKCPSMGAEKVGLVLQ
- Km [1]: 0.6 µM
- Km [2]: 4.6 µM
